These are literature values, as cited in patent publication US12253499B2, “Thin-layer chromatography system and method for assessing analyte concentrations in samples” (UCL BUSINESS LTD, priority 2017, dated 2025).

The conditions of this data set: in vivo.

As to “cetuximab: cancer drug listed in Table D; not natively fluorescent, requires label”, the Window result is listed as “at 250 mg/m^2 mg/m^2”.
